From PubChem
Shown is part of a subset that was picked to be rich in hits.
Rango-impB inh – prevents formation of the Rango-importin beta complex. Potency, µM (highest dose often 92.2 µM), for inactives: at the highest dose inhibition of complex formation. Rango CFP/YFP FRET sensor + importin beta, 45 min. 340,000 compounds, 0.031% hits. Q14974;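 note: potency is the fitted concentration of half-maximal effect; 0% = DMSO wells and 100% = buffer wells lacking importin beta; nearly all actives have a fitted effect of over 15% in size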
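FRET biosensor Rango (snurportin 1 IBB between N-terminal EYFP and C-terminal Cerulean), 50 nM in PBS/1 mM DTT/0.02% Tween-20/0.1% BSA, preincubated 5 min RT with compound; 0.125 microM importin beta added, 45 min RT, CFP/YFP FRET ratio read.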
CBFb RUNX1 block – blocks binding between human CBF-beta and RUNX1; AlphaScreen CBFb-His/RUNX1-biotin binding, biochemical; Potency, µM (doses to about 59.8 µM), inactives show at the highest dose activity, negative = inhibition, usual class: inhibitors; 230,000 tested, under 10 active; AID 1477; active = well fitted curve in the direction sought with a large enough effect; inconclusive = small, poorly fitted or top-dose-only effect, or effect the other way, or another doubt; inactive = no such curve, though single readings can be large or run the other way; note: % of control where 0% means no effect
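AlphaScreen proximity signal reports loss of binding between His-tagged CBF-beta and biotin-labelled RUNX1, each at 30 nM. Proteins are pre-associated for 20 minutes, compounds added for 15 minutes, then beads for 90 minutes, all at ambient temperature.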
Rango release inh – inhibition of RanGTP-driven Rango-importin beta dissociation; O95149+P62826; Biochemical FRET Rango-importin beta, RanGTP-induced dissociation; Potency, µM (titrated, usually from 46.1 µM), without a hit: at the highest dose activity change, negative = inhibition; 340,000 compounds, 0.071% hits; note: potency is the fitted concentration of half-maximal effect; % of control where 0% means no effect; nearly all actives have a fitted effect of over 45% in size
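Rango FRET biosensor (snurportin-1 IBB flanked by N-terminal EYFP and C-terminal CFP10) at 0.1 uM, with 0.25 uM importin beta in PBS, 1mM DTT, 0.02% Tween-20, 0.1% BSA. 0.6 uM Ran, 2mM GTP and 0.2 uM RCC1 were then added for 45 min at room temperature. Inhibition read as loss of FRET rise.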
MBNL1 CUG block – inhibitors of human MBNL1 binding to CUG repeat RNA; 280,000 compounds, 0.036% hits; TR-FRET MBNL1-His/biotin-(CUG)12 binding, 665/545 ratio; AID 2675; Potency, µM (doses to about 57.5 µM), for the others: at the top dose activity change, negative = inhibition, hits mostly inhibitors; active = well fitted inhibition curve with a large enough effect in the signal ratio, with a control signal flat, not every such curve was filed as active; inconclusive = small, poorly fitted or top-dose-only effect, or effect the other way, or a change in a side signal; inactive = no such curve, though single readings can be large or run the other way; the % refers to the signal ratio; note: potency is the fitted concentration of half-maximal effect; % is set by controls: 0 for no effect and ±100 for the full control effect
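Inhibition of protein-RNA binding appears as loss of TR-FRET between terbium anti-His antibody on MBNL1-His and streptavidin-XL665 on biotin-(CUG)12. Activity is normalized to buffer-only and uninhibited-complex controls.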
ClpP mod – qHTS Assay for Activators of ClpP; ATP-dependent Clp protease proteolytic subunit (Bacillus subtilis (strain 168)), P80244; purified B. subtilis ClpP, FRET peptide cleavage, 20 min; Potency, µM (top dose mostly 57.5 µM), for inactives: at the top dose activity change, negative = active; 340,000 compounds, 1.9% hits; active = well fitted falling curve with a large enough effect; inconclusive = small, poorly fitted or top-dose-only effect; inactive = no such curve, though single readings can be large or run the other way; note: potency is the fitted concentration of half-maximal effect; the source files actives as falling curves though it sought activators and does not explain the sign; nearly all actives have a fitted effect of over 65% in size
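FRET quenching reversal measured ClpP activation: 10 microg/mL B. subtilis ClpP at pH 8 with the FRET-FV decapeptide, read at 430 nm after 320 nm excitation. The 20-min minus 0-min signal was scaled between DMSO/no-enzyme wells and ADEP (5.8 microM final).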
Active calls of the source: *; ? = inconclusive; / = no result. Unless noted, calls come from the whole dose curve.

Protein sequences, listed by entry. Tags and fused reporters are not part of them.
ATP-dependent Clp protease proteolytic subunit (Bacillus subtilis (strain 168)), P80244, UniProt P80244, whole entry, looked up: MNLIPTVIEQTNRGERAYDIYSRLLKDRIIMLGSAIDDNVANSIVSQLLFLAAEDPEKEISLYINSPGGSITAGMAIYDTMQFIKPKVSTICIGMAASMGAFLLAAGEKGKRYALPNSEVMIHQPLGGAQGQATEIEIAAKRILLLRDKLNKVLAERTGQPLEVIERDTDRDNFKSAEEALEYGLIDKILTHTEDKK

SMILES | Rango-impB inh | CBFb RUNX1 block | Rango release inh | MBNL1 CUG block | ClpP mod
CC(C(=O)NCc1ccccc1)n1c(-c2ccc3c(c2)CCO3)nc2ccccc21 (stereo unspecified) | / | / | / | / | 4.7%
Cc1cc2nc(-c3ccc(SCc4ccccn4)nc3)[nH]c2cc1C | 1.1% | ? | -23.2% | 180.4% | /
O=C(CSc1ccc(-c2nc3ccccc3[nH]2)cn1)Nc1ccc2c(c1)OCCO2 | -3.3% | 12.0% | -6.3% | ? | 25.1µM*
CCOC(=O)CSc1ccc(-c2nc3cc(C)c(C)cc3[nH]2)cn1 | ? | -4.7% | 27.5% | 45.4% | 31.6µM*
Cc1cc2nc(-c3ccc(SCC(=O)N4CCOCC4)nc3)[nH]c2cc1C | 1.1% | 11.1% | 6.4% | 26.4% | 3.16µM*
O=C(NC1CCCCC1)c1ccc(Cn2c(SCc3cccc(F)c3)nc3cccnc32)cc1 | / | / | / | / | 5.1%
CCN1CCN(CCNC(=O)Cn2c(=O)c3cccn3c3ccc(F)cc32)CC1 | -1.2% | / | 0.9% | -0.9% | -29.9%
CCN1CCN(CCCNC(=O)Cn2c(-c3cccs3)cc3cc(F)ccc32)CC1 | / | / | / | / | 17.8µM*
O=C(Cn1c(-c2cccs2)cc2cc(F)ccc21)NCCCN1CCN(c2ccc(F)cc2)CC1 | / | / | / | / | 31.6µM*
COc1cc2c(cc1OC)C(CNC(=O)C=Cc1cc(OC)c(OC)c(OC)c1)C2 (stereo unspecified) | / | / | / | / | 4.0%
Cc1ccc(C(=O)NC(C)CCc2ccccc2)cc1S(=O)(=O)N1CCOCC1 (stereo unspecified) | -0.5% | / | -0.7% | / | 28.2µM*
O=C(O)CCCNc1ccc(S(=O)(=O)Nc2ccccc2C(=O)O)cc1C(=O)O | 2.7% | 7.0% | 3.5% | -7.3% | 15.8µM*
Cn1c(=O)n(C)c2cc(S(=O)(=O)Nc3ccccc3C(=O)O)ccc21 | 3.7% | / | -6.4% | -9.9% | ?
CC(=O)Nc1cccc2ccc(O)cc12 | -5.7% | / | -0.9% | / | /
CC(=O)Nc1cc2c3ccccc3ccc2c2ccccc12 | -6.0% | / | -9.2% | / | 31.6µM*
CC(C)CCN1C(=O)c2ccc(C(=O)NCc3ccccn3)cc2C1=O | 1.6% | / | -2.1% | / | 31.6µM*
COc1ccc(OC)c(/C=C/c2cc3ccccc3cn2)c1 | / | / | / | / | -24.6%
Cc1ccc(-n2c(SCC(N)=O)nnc2-c2ccc(S(=O)(=O)N3CCCCC3)cc2)c(C)c1 | 0.7% | -0.4% | 19.0% | -1.2% | 25.1µM*
COc1ccc(OC)c(CCNC(=O)CCCn2c(=O)c3cccn3c3ccc(F)cc32)c1 | / | / | / | / | 0.1%
Clc1ccc(Cl)c(OCc2cc(-c3ccccc3Cl)on2)c1 | 0.9% | 6.1% | -1.6% | -0.2% | 14.1µM*

Copied from the list.
Result of CCOC(=O)CSc1ccc(-c2nc3cc(C)c(C)cc3[nH]2)cn1 under Rango release inh: 27.5%
Result of O=C(Cn1c(-c2cccs2)cc2cc(F)ccc21)NCCCN1CCN(c2ccc(F)cc2)CC1 under ClpP mod: 31.6µM*
Result of Cc1ccc(C(=O)NC(C)CCc2ccccc2)cc1S(=O)(=O)N1CCOCC1 (stereo unspecified) under ClpP mod: 28.2µM*

Continued.
SMILES | Rango-impB inh | CBFb RUNX1 block | Rango release inh | MBNL1 CUG block | ClpP mod
CC1=C(C(=O)Nc2ccc(Cl)cc2)C(c2ccccc2C)n2ncc(C(=O)Nc3ccc(C)cc3)c2N1 (stereo unspecified) | / | / | / | / | 31.6µM*
COc1cccc(C2C(C(=O)Nc3ccc(Cl)cc3)=C(C)Nc3c(C(=O)Nc4ccccc4)cnn32)c1OC (stereo unspecified) | / | / | / | / | 28.2µM*
CC1=C(C(=O)Nc2ccc(Cl)cc2)C(c2ccccc2)n2ncc(C(=O)Nc3ccccc3)c2N1 (stereo unspecified) | / | / | / | / | 5.0%
CCN1CCN(C(=O)c2cn(CCOC)c(=O)c3c2c2ccccc2n3C)CC1 | -3.5% | 8.0% | -0.7% | 4.5% | ?
COCCn1cc(C(=O)NCCCOC(C)C)c2c3ccccc3n(C)c2c1=O | 3.2% | / | 21.0% | 2.6% | 31.6µM*
COCCNC(=O)c1cn(CCOC)c(=O)c2c1c1ccccc1n2C | -5.0% | / | -6.1% | 8.9% | 3.9%
CC(C)Cn1cc(C(=O)N2CCN(c3ccccn3)CC2)c2c3ccccc3n(C)c2c1=O | 0.6% | -1.1% | -16.9% | 10.0% | 15.8µM*
COCCCNC(=O)c1cn(CCOC)c(=O)c2c1c1ccccc1n2C | -2.6% | / | 1.2% | 3.5% | 3.5%
CCOc1ccc(NC(=O)c2cn(CC(C)C)c(=O)c3c2c2ccccc2n3C)cc1 | -1.0% | -4.8% | 8.9% | -19.9% | -4.4%
CCOC(=O)C1CCN(C(=O)c2cn(CCOC)c(=O)c3c2c2ccccc2n3C)CC1 | 0.4% | 4.2% | 7.3% | 6.7% | 7.94µM*
COCCCNC(=O)c1cn(CC(C)C)c(=O)c2c1c1ccccc1n2C | ? | 1.7% | -21.5% | -1.8% | 31.6µM*
Cc1ccc(-c2nn3c(-c4ccccc4)nnc3c3ccccc23)cc1 | / | / | / | / | -6.9%
COc1cccc(NC(=O)CN(C)S(=O)(=O)c2cccs2)c1 | / | / | / | / | -3.6%
COCCCNC(=O)CCn1c(=O)c2ccccc2n(CC(=O)Nc2c(C)cc(C)cc2C)c1=O | / | / | / | / | 1.1%
COc1ccc(OC)c(/C=C(\C#N)c2nc(-c3ccc(F)cc3)cs2)c1 | / | / | / | / | -0.6%
O=C(c1ccco1)N1CCN(CC(O)Cn2c3ccccc3c3ccccc32)CC1 (stereo unspecified) | 3.3% | -5.1% | 0.6% | 8.9% | 28.2µM*
CC(C)Cn1cc(C(=O)NCCCN2CCC(C)CC2)c2c3ccccc3n(C)c2c1=O | -2.9% | / | 15.6% | / | /
O=C(c1ccco1)N1CCN(CC(O)COc2ccc(Br)cc2)CC1 (stereo unspecified) | 0.6% | / | -2.9% | 0.9% | /
Cn1cc(C(=O)N2CCN(C(=O)c3ccco3)CC2)c2c3ccccc3n(C)c2c1=O | 7.5% | -1.4% | 7.4% | -1.3% | 14.1µM*
CC(C)Cn1cc(C(=O)NCCCN2CCCC2=O)c2c3ccccc3n(C)c2c1=O | -0.6% | 4.9% | 11.8% | ? | 15.8µM*
COc1ccc(-c2cc3nc(C)c(CCC(=O)N4CCN(c5ccccc5F)CC4)c(C)n3n2)c(OC)c1 | / | / | / | / | -11.7%
O=C(NCc1cccs1)c1ccc(CSc2nc3ccncc3n2Cc2ccccc2)cc1 | / | / | / | / | -14.3%
COc1ccc(NC(=O)C2CCN(S(=O)(=O)c3c(C)noc3/C=C/c3ccco3)CC2)cc1 | / | / | / | / | -6.8%
CCC(COC(=O)Nc1cccc(C)c1)NC(=O)OCC(C)C (stereo unspecified) | 0.7% | 0.6% | -7.2% | -8.1% | 10µM*
Cc1ccc2c(c1)-c1ccccc1S(=O)(=O)N2 | -0.6% | 5.3% | 1.2% | 14.1% | 28.2µM*
CCOC(=O)c1sc(C)c2c1NC(C)(c1ccccc1)NC2=O (stereo unspecified) | -1.3% | 0.7% | -10.9% | 30.5% | 31.6µM*
Oc1ccc2ccccc2c1-c1sc(Nc2ccccc2)n[n+]1-c1ccc(F)cc1 | 51.7µM* | / | 0.7% | 8.1% | 4.0%
Fc1ccc(-[n+]2nc(Nc3ccccc3)sc2-c2c3ccccc3cc3ccccc23)cc1 | -0.1% | / | -3.1% | ? | -1.5%
Cc1cccc(-c2noc(CN(C(=O)C34CC5CC(CC(C5)C3)C4)C(C)C)n2)c1 | 2.9% | 7.4% | 15.6% | -1.6% | 31.6µM*

Structures shown so far that have a COOH group:
SMILES | Rango-impB inh | CBFb RUNX1 block | Rango release inh | MBNL1 CUG block | ClpP mod
O=C(O)CCCNc1ccc(S(=O)(=O)Nc2ccccc2C(=O)O)cc1C(=O)O | 2.7% | 7.0% | 3.5% | -7.3% | 15.8µM*
Cn1c(=O)n(C)c2cc(S(=O)(=O)Nc3ccccc3C(=O)O)ccc21 | 3.7% | / | -6.4% | -9.9% | ?
